In brackets after ≈: the same amount, converted by molar mass.
Molecular target: T1, DPP-4 (derived from porcine kidney) (Sus scrofa, UniProt P22411)
T1 construct: purchased Sigma; host or cells: porcine kidney (tissue-derived enzyme)
Assay: DPP-4 inhibition rate / IC50 value measurement (Gly-Pro-MCA fluorescence)
Assay type: biochemical
Settings: individual oligopeptides; for IC50: read-out: IC50 value (mg/ml) (converted)
Experimental: Thirty-five μl of sample solution obtained by dissolving a sample in 50 mM tris-hydrochloric acid buffer (pH 7.5) and 15 μl of DPP-4 (manufactured by Sigma, derived from porcine kidney; 8.6 mU/ml) that was dissolved in 50 mM tris-hydrochloric acid buffer (pH 7.5) were mixed in a microtiter plate well (manufactured by NUNC, trade name “237015”) and incubated at 37° C. for 10 minutes.
To this, 50 μl of substrate solution (obtained by dissolving glycylproline-4-methylcoumarin-7-amide (Gly-Pro-MCA) in 50 mM tris-hydrochloric acid buffer (pH 7.5) at 10 μM) kept at 37° C. in advance was added and mixed to react at 37° C. for 20 minutes.
The fluorescence intensity of 7-amino-4-methylcoumarin (AMC) released by DPP-4 was measured with time using a microplate reader-type fluorescence detector (manufactured by Corona Electric Co., Ltd., trade name “SH-9000”). As for the wavelength used for the measurement, the excitation wavelength was 380 nm and the measurement wavelength was 460 nm Instead of sample, 50 mM tris-hydrochloric acid buffer (pH 7.5) in an identical amount was employed as a control and the fluorescence intensity thereof was measured.
The activity of DPP-4 was expressed in an average gradient of change in the amount of fluorescence intensity during a reaction time. As for a DPP-4 inhibition rate, difference was calculated by, with the control as 100%, subtracting the activity of sample from the above-mentioned control to use as the inhibition rate (%).
According to the above method of measuring the DPP-4 inhibition rate, a 50% inhibitory concentration (IC50 value) of the DPP-4 activity in terms of one ml of reaction system was calculated by using the inhibition rates obtained by changing the concentration of sample.

Chains of the proteins cited; added tags and fusions are not shown. Lines headed by an entry give the natural chain unless they say otherwise; changes in a name come on top.
UniProt P22411: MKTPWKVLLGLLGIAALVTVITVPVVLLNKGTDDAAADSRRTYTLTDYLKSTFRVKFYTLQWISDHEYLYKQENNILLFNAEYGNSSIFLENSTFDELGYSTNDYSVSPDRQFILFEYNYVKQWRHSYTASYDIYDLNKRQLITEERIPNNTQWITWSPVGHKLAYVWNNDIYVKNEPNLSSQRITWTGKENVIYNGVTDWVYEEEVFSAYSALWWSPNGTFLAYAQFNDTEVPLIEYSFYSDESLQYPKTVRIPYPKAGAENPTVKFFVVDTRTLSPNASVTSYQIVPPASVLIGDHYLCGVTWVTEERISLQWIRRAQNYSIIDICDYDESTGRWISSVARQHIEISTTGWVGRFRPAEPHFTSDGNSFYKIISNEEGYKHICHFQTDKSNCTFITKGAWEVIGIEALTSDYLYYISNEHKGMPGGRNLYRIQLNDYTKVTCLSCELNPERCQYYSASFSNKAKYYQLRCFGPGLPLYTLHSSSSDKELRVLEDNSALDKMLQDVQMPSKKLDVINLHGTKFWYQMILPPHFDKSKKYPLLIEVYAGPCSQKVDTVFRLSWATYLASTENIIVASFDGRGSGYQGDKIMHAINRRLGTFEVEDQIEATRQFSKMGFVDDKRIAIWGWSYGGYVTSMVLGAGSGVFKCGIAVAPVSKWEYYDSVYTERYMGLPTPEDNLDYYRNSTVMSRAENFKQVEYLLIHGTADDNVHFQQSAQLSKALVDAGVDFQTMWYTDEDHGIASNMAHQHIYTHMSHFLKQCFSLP

SMILES | IC50 [µM] | IC50 value [µg/mL]
NCC(=O)N1CCC[C@H]1C(=O)N[C@@H](CO)C(=O)O [GlyProSer] | 548 | 
NCC(=O)N1CCC[C@H]1C(=O)N[C@@H](CCC(N)=O)C(=O)O [GlyProGln] |  | 93 (≈ 310 µM)
C[C@H](NC(=O)[C@@H]1CCCN1C(=O)CN)C(=O)O [GlyProAla] | 292 | 
CC(C)C[C@H](N)C(=O)N1CCC[C@H]1C(=O)NCC(=O)O [LeuProGly] |  | 14 (≈ 49.1 µM)
CC(C)[C@H](NC(=O)[C@@H]1CCCN1C(=O)CN)C(=O)O [GlyProVal] |  | 100 (≈ 369 µM)
C[C@H](N)C(=O)N1CCC[C@H]1C(=O)NCC(=O)O [AlaProGly] |  | 8 (≈ 32.9 µM)
